The values below come from patent publication US20130217616A1 (OMEROS, published 2013).

The target of experiment [1] is T1, MBL/Ficolin associated protein-1 (MAP-1) from normal human serum (human, UniProt P48740 20-363).
T1 construct: Native protein as present in normal human serum (co-immunoprecipitation); also called FAP; serum MAP-1
T1 sequence: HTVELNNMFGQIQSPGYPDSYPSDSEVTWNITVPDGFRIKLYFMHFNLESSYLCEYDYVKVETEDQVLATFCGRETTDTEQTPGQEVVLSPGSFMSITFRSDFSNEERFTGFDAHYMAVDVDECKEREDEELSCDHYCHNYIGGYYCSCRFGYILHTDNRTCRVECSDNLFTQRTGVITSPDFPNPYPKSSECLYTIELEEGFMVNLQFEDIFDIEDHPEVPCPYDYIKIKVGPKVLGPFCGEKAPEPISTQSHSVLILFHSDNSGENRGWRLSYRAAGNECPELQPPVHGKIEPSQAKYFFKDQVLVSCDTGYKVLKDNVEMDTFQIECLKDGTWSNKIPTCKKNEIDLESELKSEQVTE
Put plainly: co-immunoprecipitation from normal human serum, western blot. As to the method:
Specific immunoprecipitation of MAP-1 from serum was performed with the MAP-1 specific mAb 20C4 (raised against the 17 MAP-1 specific C-terminal peptide) or mAb 8B3, a monoclonal antibody reacting against the common heavy chain of MASP-1/3 used as control precipitation antibody. A total of 10 μg of anti MAP-1 or MASP-1/3 antibody was allowed to bind to sheep anti mouse or rabbit IgG Dynabeads (M−280, cat. 112.02D/112.04D, Dynal/Invitrogen). After a washing step the beads were applied to a pool of normal human serum (diluted 1:1 in TBS) and incubated end over end for 1 hour at 4° C. After final washing steps and magnetic separation the beads were boiled in SDS loading buffer and subjected to SDS-PAGE and western blotting probed with antibodies to MAP-1, MBL, and Ficolin-3.
The same precipitation procedure as described above was performed with mAbs to MBL (Hyb 131-11, Bioporto, Denmark), Ficolin-2 (FCN219) and Ficolin-3 (FCN334). To compensate for differences in serum concentrations of MBL, Ficolin-2 and -3 were precipitated from 1 ml, 300 μl and 100 μl serum, respectively. Samples were analyzed by SDS-PAGE and western blotting probed with pAb against MAP-1.
On the technique in general: A western blot detects proteins with antibodies after separation by electrophoresis.

The target of experiment [2] is T1, MBL/Ficolin associated protein-1 …. As to the kind of experiment: immunoprecipitation of serum Ficolin-3 with clone 334, western blot with biotin labeled mAb 8B3 (FIG. 9). An excerpt:
FIG. 9: Immunoprecipitation. Immunoprecipitation of serum Ficolin/MBL with mAb anti-MBL 131-11, anti-Ficolin-2 clone 219, and anti-Ficolin-3 clone 334. Followed by Dynal magnetic bead separation, SDS-PAGE, Western blot and biotin labeled anti-MASP-1/MASP-3 clone 8B3 as signal antibody.

B1: Ficolin-2 in normal human serum (other, UniProt Q15485 26-313, looked up)
chain: LQAADTCPEVKMVGLEGSDKLTILRGCPGLPGAPGPKGEAGTNGKRGERGPPGPPGKAGPPGPNGAPGEPQPCLTGPRTCKDLLDRGHFLSGWHTIYLPDCRPLTVLCDMDTDGGGWTVFQRRVDGSVDFYRDWATYKQGFGSRLGEFWLGNDNIHALTAQGTSELRVDLVDFEDNYQFAKYRSFKVADEAEKYNLVLGAFVEGSAGDSLTFHNNQSFSTKDQDNDLNTGNCAVMFQGAWWYKNCHVSNLNGRYLRGTHGSFANGINWKSGKGYNYSYKVSEMKVRPA
notes: Native oligomeric serum protein
B1: the binding result in experiment [1] is “binds”.

B2: Ficolin-3 in normal human serum (other, UniProt O75636 24-299, looked up)
chain: QEHPSCPGPRELEASKVVLLPSCPGAPGSPGEKGAPGPQGPPGPPGKMGPKGEPGDPVNLLRCQEGPRNCRELLSQGATLSGWYHLCLPEGRALPVFCDMDTEGGGWLVFQRRQDGSVDFFRSWSSYRAGFGNQESEFWLGNENLHQLTLQGNWELRVELEDFNGNRTFAHYATFRLLGEVDHYQLALGKFSEGTAGDSLSLHSGRPFTTYDADHDSSNSNCAVIVHGAWWYASCYRSNLNGRYAVSEAAAHKYGIDWASGRGVGHPYRRVRMMLR
notes: as for B1
On to B2, for which, in experiment [2], the binding result is “binds”.

B3: mannose-binding lectin (MBL) in normal human serum (other, UniProt P11226 21-248, looked up)
chain: ETVTCEDAQKTCPAVIACSSPGINGFPGKDGRDGTKGEKGEPGQGLRGLQGPPGKLGPPGNPGPSGSPGPKGQKGDPGKSPDGDSSLAASERKALQTEMARIKKWLTFSLGKQVGNKFFLTNGEIMTFEKVKALCVKFQASVATPRNAAENGAIQNLIKEEAFLGITDEKTEGQFVDLTGNRLTYTNWNEGEPNNAGSDEDCVLLLKNGQWNDVPCSTSHLAVCEFPI
notes: Native oligomeric serum protein; also called serum MBL
Consider B3, for which the binding result in experiment [1] is listed as “binds”.
